Yeast mating assay 2: variants of the scFv Ab-91

Data: MIT Lincoln Laboratory AlphaSeq set, Engelhart et al. 2022, doi:10.1038/s41597-022-01779-4, as distributed in FLAb.

The target is the same throughout: PDVDLGDISGINAS, from the HR2 region of SARS-CoV-2 spike.

Parent: Ab-91, a human scFv built as VL, a 15-residue (Gly4Ser)3 linker, VH. Only the CDRs of the heavy chain vary.
VL: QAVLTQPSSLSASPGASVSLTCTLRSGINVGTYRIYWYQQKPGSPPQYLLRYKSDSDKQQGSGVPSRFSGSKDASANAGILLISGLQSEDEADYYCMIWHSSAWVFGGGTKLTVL
VH: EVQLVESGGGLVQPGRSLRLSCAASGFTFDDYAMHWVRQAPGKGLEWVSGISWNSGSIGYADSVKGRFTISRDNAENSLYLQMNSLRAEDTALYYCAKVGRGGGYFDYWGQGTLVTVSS

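The parent was found by panning a naive human phage display library on the peptide. AAYL51 was designed without a model: most single CDR substitutions and a random sample of double and triple ones. The scFvs were displayed on barcoded MATa yeast, the peptide on MATalpha yeast. Pairs that bind mate more often; barcode pairs of the diploids are counted by sequencing. Scores were corrected for input abundance and mapped to Kd with protein pairs of known affinity run in the same pool. Mating was done three times.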

The parent's heavy chain CDRs are GFTFDDYAMH, GISWNSGSIGYADSVK, VGRGGGYFDY; each variant's own CDRs replace them letter for letter.
All variants listed here change D107 of the VH, counted from its first residue.
The Kd shown is the geometric mean over detected replicates; a lower Kd is a better binder.
Where no diploid with the target was found in any replicate, the entry reads "no signal": below detection, most likely a poor binder, though not proof of it.
As a blank, each scFv also met three strains without target: over library AAYL51, 21% of these pairings were detected, typically at 34 µM and seldom below 1.8 µM. The control count says in how many pairings with the empty strains this scFv gave a signal.
For reference, the parent read 72 nM as the reference entry and 7.5 nM as a member of this library.

With GFTFDDYAMH / GNSWNSVSIGYADSVK / VGRGGGYFWY the result was no signal (0 of 3 replicates; controls 0 of 9). Variant GFKFDDYAMH / GISWNSGSIGYACSVK / VGRGGGYFEY showed 650 nM (2 of 3 replicates; controls 0 of 9). With GFTFQDYAMH / GISWNSGSIGIADSVK / VGRGGGYFIY the result was 340 nM (3 of 3 replicates; controls 1 of 9). Variant GFTFDDYQMH / GISWNSGSIGYADEVK / VGRGGGYFLY gave 28 µM (1 of 3 replicates; controls 3 of 9). Variant GFIFDDYAMH / GISWNSGSIGYAQSVK / VGRGGGYFEY gave 180 µM (3 of 3 replicates; controls 7 of 9). Variant GFTFDDYAMH / IISWNSASIGYADSVK / VGRGGGYFNY showed no signal (0 of 3 replicates; controls 0 of 9).

For GFTFDDYAMH / GISWNSGSIGYADSCK / VGRGGGYFFY, the assay gave 40 µM (1 of 3 replicates; controls 1 of 9). Variant GFTFDDYALH / GISWNSGSIGYADSVK / VGRGGPYFSY gave 59 µM (1 of 3 replicates; controls 5 of 9). For GKTFDDYAMH / GISWNSGSIGYIDSVK / VGRGGGYFSY, the assay gave 23 µM (1 of 3 replicates; controls 1 of 9). Variant GFNFDDYAMH / GISMNSGSIGYADSVK / VGRGGGYFIY gave no signal (0 of 3 replicates; controls 1 of 9). For GFTFDDYAMH / GISQNSGSIGYADSYK / VGRGGGYFPY, the assay gave 2.2 µM (3 of 3 replicates; controls 4 of 9). With GFTFDDYAMH / GISWPGGSIGYADSVK / VGRGGGYFFY the result was no signal (0 of 3 replicates; controls 0 of 9).

Variant GFTFDDLAMH / GISWNSGSIGYADSVK / VGRGGHYFAY showed 170 µM (3 of 3 replicates; controls 6 of 9). Variant GFTFDDYAMH / EISWNSGSIGYADSVK / VGRGGRYFRY gave 45 µM (1 of 3 replicates; controls 4 of 9). Variant GFTCDDYAMH / MISWNSGSIGYADSVK / VGRGGGYFIY gave no signal (0 of 3 replicates; controls 0 of 9). Variant GFTFDDYAMH / GISWNSGSIGYADSVK / WGRLGGYFVY showed no signal (0 of 3 replicates; controls 0 of 9). With GFTFDDYAMH / GISWNSGSIGYADSVK / RGRGYGYFLY the result was 11 µM (2 of 3 replicates; controls 4 of 9). For GFTFDDYAMH / GISWNSGFIGYADSVK / VGRGGGYFYY, the assay gave no signal (0 of 3 replicates; controls 0 of 9).

Variant GFTFDDRAMH / GPSWNSGSIGYADSVK / VGRGGGYFIY showed no signal (0 of 3 replicates; controls 2 of 9). For GFTFCDYAMH / GISWNSGSIGYADSVK / VGRGGGYFEM, the assay gave 150 nM (3 of 3 replicates; controls 0 of 9). For GETFDDYAMH / GISWNDGSIGYADSVK / VGRGGGYFHY, the assay gave 4.4 µM (1 of 3 replicates; controls 0 of 9). Variant GFTFDDYADH / GISWNSGSIGYADSVK / VHRGGGYFAY gave 9.4 µM (1 of 3 replicates; controls 2 of 9). Variant GFTFDDYAMH / GISHGSGSIGYADSVK / VGRGGGYFSY showed no signal (0 of 3 replicates; controls 1 of 9). For YFTFDDYAMH / GISWNSWSIGYADSVK / VGRGGGYFLY, the assay gave 77 µM (1 of 3 replicates; controls 3 of 9).

Variant GCTFFDYAMH / GISWNSGSIGYADSVK / VGRGGGYFYY gave 480 µM (2 of 3 replicates; controls 7 of 9). For GFTFDDYAMH / GISWNSGSIGYADMVK / VGRGGGYFHD, the assay gave 100 µM (1 of 3 replicates; controls 1 of 9). Variant GFMFDDYAIH / GISWNSGSIGYADSVK / VGRGGGYFVY gave no signal (0 of 3 replicates; controls 4 of 9). With GFTFDDYVMH / GISWNSGSIGYADSVK / VGRCGGYFLY the result was 13 µM (1 of 3 replicates; controls 4 of 9). Variant GFTFDKYAMH / GIYWNSGSIGYADSVK / VGRGGGYFCY showed no signal (0 of 3 replicates; controls 0 of 9). Variant GFTFDDYAMH / GISWNSGLIGYADSVK / SGRGGGYFPY showed 160 µM (3 of 3 replicates; controls 3 of 9).

For GFTFDDYAMH / GISWNSGSIGYAFSVK / VKRGGGYFNY, the assay gave 590 nM (2 of 3 replicates; controls 0 of 9). With GFTFDDYAMF / GISWNSGSIGYADSVK / VGRGGGYFNY the result was 90 µM (1 of 3 replicates; controls 4 of 9). Variant GFTFDDYAMH / GISWNSGSIIYADSVK / VGRGGQYFRY showed no signal (0 of 3 replicates; controls 0 of 9). For GFTFDDYAMH / GISWNSGSIGYWDSVK / VGRGGGYFYV, the assay gave 54 µM (1 of 3 replicates; controls 2 of 9). Variant GFTFDDYAMH / GIFWNSGSIGYADSVK / VGRGGGYFNG gave 10 µM (1 of 3 replicates; controls 0 of 9). For GFTFDDYAMH / SISWNSGAIGYADSVK / VGRGGGYFWY, the assay gave no signal (0 of 3 replicates; controls 0 of 9).

Variant GFTFDDYAMH / GIIWNSGSIGYADSVK / VGRGAGYFPY gave 81 µM (1 of 3 replicates; controls 1 of 9). Variant GFTFDDYAMH / GISWNSGSIGYADSVK / VGPGGGYFPP showed no signal (0 of 3 replicates; controls 1 of 9). For GFTFDDYAMF / GISWNSGSIGYADSVK / QGRGGGYFVY, the assay gave 80 µM (2 of 3 replicates; controls 3 of 9). With GFTFDDYAMH / GISWNSGSIGYADSVY / VGRGGNYFGY the result was no signal (0 of 3 replicates; controls 1 of 9). Variant GFTFDDYAMH / GISWNIGSIGYADSVK / VGRGGGYFAV showed 3.6 µM (1 of 3 replicates; controls 3 of 9). For GFTFDDYAMH / GISWNSGSIGYADSVK / VGRGGYYFSH, the assay gave 5.2 µM (1 of 3 replicates; controls 0 of 9).

With GFTFDDYAMH / GISWNSGSIGSADLVK / VGRGGGYFEY the result was no signal (0 of 3 replicates; controls 0 of 9).

A selection of 3 entries from above:

For GFTFDDYAMH / EISWNSGSIGYADSVK / VGRGGRYFRY, the assay gave 45 µM (1 of 3 replicates; controls 4 of 9).
For GFTFDDYVMH / GISWNSGSIGYADSVK / VGRCGGYFLY, the assay gave 13 µM (1 of 3 replicates; controls 4 of 9).
For GKTFDDYAMH / GISWNSGSIGYIDSVK / VGRGGGYFSY, the assay gave 23 µM (1 of 3 replicates; controls 1 of 9).